# Apparent affinities of Ab-14 variants for a coronavirus HR2 peptide

From the AlphaSeq antibody data of Engelhart et al. 2022 (doi:10.1038/s41597-022-01779-4), copy in the FLAb collection.

Target: peptide PDVDLGDISGINAS, taken from heptad repeat 2 (HR2) of SARS-CoV-2 spike.

Parent: Ab-14, a human scFv built as VH, a 15-residue (Gly4Ser)3 linker, VL. Only the CDRs of the light chain vary.
VH: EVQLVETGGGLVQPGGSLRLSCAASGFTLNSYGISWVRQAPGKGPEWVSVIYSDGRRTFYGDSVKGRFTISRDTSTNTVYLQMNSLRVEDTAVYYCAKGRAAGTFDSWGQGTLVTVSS
VL: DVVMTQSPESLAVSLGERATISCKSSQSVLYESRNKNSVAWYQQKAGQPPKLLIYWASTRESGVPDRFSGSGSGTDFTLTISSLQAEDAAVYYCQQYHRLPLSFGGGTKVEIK

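Variants in AAYL50 differ from the parent at up to three CDR positions; double and triple changes were sampled at random. Affinity was read by AlphaSeq, a pooled yeast mating assay with surface-displayed partners. After mating in shaken culture at 30 °C for 16 h, diploids were selected and their barcode pairs sequenced. A regression on co-assayed BCL2-family reference pairs converts the normalised counts of each replicate to an apparent Kd. There are three technical replicates.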

The parent's light chain CDRs are KSSQSVLYESRNKNSVA, WASTRES, QQYHRLPLS; each variant's own CDRs replace them letter for letter. The Kd shown is the geometric mean over detected replicates; a lower Kd is a better binder. "nd" marks a missing value. The strain was present, yet no cells mated with the target were sequenced in any replicate, which points to weak or no binding. Parent in this assay: reference entry 4.4 nM, copy in this library 48 nM. Three control strains display no target. For library AAYL50, 18% of the pairings with them gave a signal, with a median of 15 µM and one signal in twenty below 970 nM, so weak values seen in few replicates may be background.

| Kd | replicates with signal | CDR-L1 | CDR-L2 | CDR-L3 |
|---|---|---|---|---|
| 150 nM | 3/3 | KSSQSVLYESRNKNMVA | WASTRES | QHYWRLPLS |
| 1.8 µM | 2/3 | KSSQSVLYESRNPNSVA | WASNRES | QMYHRLPLS |
| 21 nM | 3/3 | KSSQSVLYESRNINSVA | WASTRET | QQYHREPLS |
| 23 nM | 3/3 | KSSQSVLKESRNKNSVA | WASTRES | QQYHPLPLS |
| 58 µM | 2/3 | KSSQEVLYESRNKNSVA | WAPTRES | QQYHQLPLS |
| 200 nM | 3/3 | KSSQSVLYESFNSNSVA | WASTRES | QQYHRLPLL |
| 71 nM | 3/3 | KSSQSVLYESRNKNSVA | WASTRES | QQYHLLPNA |
| nd | 0/3 | KSCQSVLYESRNKNSNA | WASTRES | QQYHRLPLS |
| 38 nM | 3/3 | KSSQSVHYESRNKNSVA | WASTLES | QQYHRLPLS |
| nd | 0/3 | KSYQSVLGESRNKNSVK | WASTRES | QQYHRLPLS |
| nd | 0/3 | SSSQSVLYESRNKNSVA | WANTRES | QQYHRLPLS |
| 82 µM | 1/3 | KSSQSVLYESRNKNSVE | WASDRES | QQYHRLCLS |
| nd | 0/3 | KSSQMVLYEKRNKNSVA | WASTDES | QQYHRLPLS |
| 13 nM | 3/3 | KYSQSVLYEKRNKNSVA | WASTRES | QQYHWLPLS |
| nd | 0/3 | KSSQSVLYLSRNKNSVA | WASKRES | QQAHRLPLS |
| 1.3 nM | 3/3 | KVSQSVLYSSRNKNSVA | WASTRES | QQYHRLPLI |
| 210 µM | 2/3 | KSSQSVRYESRNKNSVC | WASTRES | QQYCRLPLS |
| 160 nM | 3/3 | KSSQSVLYESGNKNSVG | WASIRES | QQYHRLPLS |
| 240 nM | 3/3 | KSSQSVLYESKNKNSVA | WSSTRES | QQYLRLPLS |
| 6.2 µM | 3/3 | KSRQSVLRESRNKNSVA | WASTRES | QQYPRLPLS |
| 52 µM | 1/3 | KSSQSVEYESRNKNSVA | WASTRHS | QQYHRLRLS |
| 22 nM | 3/3 | KSSQPVLYESRNKESVA | WASTRES | QQYHDLPLS |
| 280 nM | 3/3 | CSSQSVLYESRNKSSVA | WASTRES | QQYHRLPMS |
| nd | 0/3 | KSSQSVRYESRNKNSVL | WASTRES | QQYHRLDLS |
| 2.0 nM | 3/3 | KSSQSVLYMSRNKNSVA | NASTRES | QQYGRLPLS |
| nd | 0/3 | KSSPSALYESRNKNSVA | WASTRES | QQYHRLPDS |
| 13 nM | 3/3 | KSSQSVLYESRNKNSVA | WASTREL | QHYHRLPLS |
| nd | 0/3 | KSSQSVSYESRNKNSVI | WASTRES | QQYHRLPLS |
| 32 µM | 1/3 | KSSQSVLYESRNKNKVA | WASTRES | CQYHKLPLS |
| nd | 0/3 | KSSQSVLDTSRNKNSVA | WASTRES | QQQHRLPLS |
| 380 nM | 1/3 | KSDGSVLYESRNKNSCA | WASTRES | QQYHRLPLS |
| 2.8 µM | 2/3 | KSSQSVLYESRNYNSVA | WASTQNS | QQYHRLPLS |
| 4.4 nM | 3/3 | KSSQSHLAESFNKNSVA | WASTRES | QQYHRLPLS |
| nd | 0/3 | KSSQSVLYEARNKNSLA | WASTRPS | QQYHRLPLS |
| 79 nM | 3/3 | KSSQSPLYEKRNKNSVA | WASTRES | QQYHRLPLK |
| 20 nM | 3/3 | KSSQSVLYESRSKNSVA | WAHTRES | QQYFRLPLS |
| nd | 0/3 | KSSQSVLYESRNKNFVA | WASTRES | QQYHRLPLI |
| 5.3 nM | 3/3 | KSSQSVLQFSRDKNSVA | WASTRES | QQYHRLPLS |
| 8.3 µM | 1/3 | KSSQSVMYESRNKNSVD | WASTRES | QQYHRLPLS |
| 2.3 nM | 3/3 | KSSRSVLYESYNKNSVA | WASTRES | QQYNRLPLS |
| 32 µM | 2/3 | KSSQSVLYESRNKNSVI | WASHRES | QQIHRLPLS |
| 2.0 µM | 1/3 | KSPQSVLYESRNKNSVA | WNSTRPS | QQYHRLPLS |
| 2.1 mM | 1/3 | KSNQSVLYESRNKGSRA | WASTRES | QQYHRLPLS |
| 27 nM | 3/3 | TTSQSVLYESRNKNSVA | WASTRES | QQYHRLPFS |
| 4.2 µM | 1/3 | KSGHSVLYESRNKNSVA | WASTRES | QQYHRKPLS |
| nd | 0/3 | KSSQSVLYESRRKNSVA | WASTFES | QQEHRLPLS |
| 39 µM | 2/3 | KSSQSVLYESRNHNSVA | WATTQES | QQYHRLPLS |
| 2.4 µM | 3/3 | KSSQSVLYESRNKNSVA | WASTLES | QQYHRTPLF |
| 7.9 µM | 2/3 | PSLVSVLYESRNKNSVA | WASTRES | QQYHRLPLS |
| 190 µM | 3/3 | KSSQSVLYESRNANSVA | GASTRES | QQYHPLPLS |
| 420 pM | 3/3 | KFHQSVLYESRNKNSVA | GASTRES | QQYHRLPLS |
| 1.3 µM | 1/3 | KSSQTVAYESRNKNSVA | WASTRES | PQYHRLPLS |
| 1.4 µM | 3/3 | KSSQVVLYESRNKNSVA | WASTRQY | QQYHRLPLS |
| nd | 0/3 | KSSQSTTYESRNKNSDA | WASTRES | QQYHRLPLS |
| 250 nM | 3/3 | KSSQSVLYKSRNKNSVA | WASTRES | QQYKRLPTS |
| 8.6 nM | 3/3 | KCSQSVLYESRNKNSVA | WASTRES | RQYHRLPLN |
| 41 nM | 3/3 | TSSRSVLYESRNKNSVA | WASTRES | QQYHRLPLM |
| 5.0 µM | 1/3 | KSSQSVLYESWNKNSVA | WASTRES | QQYHWIPLS |
| 190 nM | 3/3 | KSSQSVLYESRNKNSVA | WASTRES | NQYHRMPLS |
| nd | 0/3 | KSSQSVLYESRNKNVVA | WAWTRES | QQYHRLPLS |
| nd | 0/3 | RSVQSVLYESRNKNSVA | WASTRES | QQYHRLCLS |
| 68 nM | 3/3 | KSSQFVLQESRNKNSVA | WASWRES | QQYHRLPLS |
| 1.8 µM | 3/3 | KSSQSVLYESCNKNSVA | WASTRES | CQYHRLPLS |
| 3.2 µM | 3/3 | KSSQSVLYESRARNSFA | WASTRES | QQYHRLPLS |
| 5.1 µM | 1/3 | KSSQSVLYESNIKNSGA | WASTRES | QQYHRLPLS |
| nd | 0/3 | KSSQSTLYESRNKNSVA | WASTRES | QQYHRYPSS |
| 1.7 nM | 3/3 | KSSQSVLYESANKNSVA | WASTRAS | FQYHRLPLS |
| 6.6 µM | 2/3 | KSSQSVLYESRNKNSVA | WASTWEG | QQYPRLPLS |

Again, the first 5 entries without any signal:

| CDR-L1 | CDR-L2 | CDR-L3 | Kd | replicates with signal |
|---|---|---|---|---|
| KSCQSVLYESRNKNSNA | WASTRES | QQYHRLPLS | nd | 0/3 |
| KSYQSVLGESRNKNSVK | WASTRES | QQYHRLPLS | nd | 0/3 |
| SSSQSVLYESRNKNSVA | WANTRES | QQYHRLPLS | nd | 0/3 |
| KSSQMVLYEKRNKNSVA | WASTDES | QQYHRLPLS | nd | 0/3 |
| KSSQSVLYLSRNKNSVA | WASKRES | QQAHRLPLS | nd | 0/3 |